The results in this text go back to ChEMBL document CHEMBL4840339, “A naphthyridine-indole ligand for selective stabilization of G-quadruplexes and conformational conversion of hybrid topology” (Bioorg Med Chem, 2021).

Type in all cases: nucleic-acid assay
The test system of assay [1] is Quadruplex DNA. The assay can be described thus: Binding affinity to BCL2 G4 quadruplex DNA (unknown origin) assessed as fold increase in fluorescence intensity at 5 uM measured after 24 hrs by fluorescence titration assay.
For assay [2], the system named is Quadruplex DNA. The assay can be described thus: Binding affinity to Tel26 G4 quadruplex DNA (unknown origin) assessed as fold increase in fluorescence intensity at 5 uM measured after 24 hrs by fluorescence titration assay.
In assay [3] the test system is Quadruplex DNA. The assay can be described thus: Binding affinity to c-MYC G4 quadruplex DNA (unknown origin) assessed as fold increase in fluorescence intensity at 5 uM measured after 24 hrs by fluorescence titration assay.
In the next assay the test system is dsDNA. The assay can be described thus: Binding affinity to dsDNA (unknown origin) assessed as fold increase in fluorescence intensity at 5 uM measured after 24 hrs by fluorescence titration assay.
Assay [4] relates to Quadruplex DNA. Description: Binding affinity to c-KIT1 G4 quadruplex DNA (unknown origin) assessed as fold increase in fluorescence intensity at 5 uM measured after 24 hrs by fluorescence titration assay.
In assay [5] the test system is Quadruplex DNA. Description: Binding affinity to Tel23 G4 quadruplex DNA (unknown origin) assessed as fold increase in fluorescence intensity at 5 uM measured after 24 hrs by fluorescence titration assay.

Consider `CN(C)CCOc1ccc2c(ccn2-c2ccc3ccc(-n4ccc5cc(OCCN(C)C)ccc54)nc3n2)c1`, for which the fold change (FC) with Quadruplex DNA [1] came out at 109; in the assay on Quadruplex DNA [2], 109; with Quadruplex DNA [3], 109; in the assay on dsDNA it was 29; with Quadruplex DNA [4] it was 109; in the assay on Quadruplex DNA [5], 109.
